Values of other authors as cited in patent publication US20150073330A1, “ALZHEIMER'S DISEASE TREATMENT WITH MULTIPLE THERAPEUTIC AGENTS DELIVERED TO THE OLFACTORY REGION THROUGH A SPECIAL DELIVERY CATHETER AND IONTOPHORESIS” (Wedge Therapeutics, LLC, priority 2012, published 2015).

Tests used:
[1] = tested on: patients with Alzheimer's; settings: cited from earlier work
[2] = in vivo; cited from earlier work

Bapineuzumab: humanized monoclonal antibody that seeks to clear brain cells of amyloid plaque
MRI finding at the highest dose ([1]; patients receiving 2 mg): swelling of the brain tissue due to fluid accumulation (vasogenic edema) | mental decline, Phase II trial ([1]; patients who lacked a genetic marker): slowed the mental decline | health risks at lower doses ([1]; subjects receiving either 0.5 or 1 mg): No health risks found | crossing of the blood brain barrier [2]: crosses the blood brain barrier
